These results are taken from the supplement of paper PMC9938120.

Assay in all cases: drug sensitivity score (DSS3, normalised partial AUC of % inhibition dose-response) (DSS (score)); higher = more sensitive (stronger inhibition of viability); extreme values may be limits of the assay
One assay relates to FMOC04 (patient-derived high-grade serous ovarian cancer cells). The note with it: 72 h; library: FO5A; assay format: 2D, 384-well, CellTiter-Glo. A digest of the protocol: (§1)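 Cells were dispensed onto 384-well flat clear-bottom plates already holding compounds at five concentrations over a 10,000-fold range, using patient-derived ovarian cancer cells at passage under 10. Incubation lasted 72 h at 37 °C in 5% CO2, after which CellTiter-Glo viability data were processed in Breeze. Higher drug sensitivity scores, each a partial area under the percent-inhibition dose-response curve divided by the log of the upper asymptote, mean more sensitive cells.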
On the technique in general: Cellular ATP, detected with luciferase, serves as a proxy for viable cell number.

A further assay concerns FMOC28 (patient-derived low-grade serous ovarian cancer cells). The note with it: 72 h; library: FO5A; assay format: 2D, 384-well, CellTiter-Glo. An outline of the steps:
as §1

The subject of another assay is FMOC09 (patient-derived high-grade serous ovarian cancer cells). Conditions: 72 h; library: FO5A; assay format: 2D, 384-well, CellTiter-Glo. An outline of the steps:
as §1

A further assay concerns FMOC03 (patient-derived mucinous ovarian cancer cells). The note with it: 72 h; library: FO5A; assay format: 2D, 384-well, CellTiter-Glo. A digest of the protocol:
as §1

Another assay deals with FMOC06 (patient-derived mucinous ovarian cancer cells). Conditions: 72 h; library: FO5A; assay format: 2D, 384-well, CellTiter-Glo. A digest of the protocol: as §1
In a further assay the test system is FMOC02_2 (patient-derived low-grade serous ovarian cancer cells). The note with it: 72 h; library: FO5A; assay format: 2D, 384-well, CellTiter-Glo. An outline of the steps:
as §1

In the next assay the test system is FMOC02_3 (patient-derived low-grade serous ovarian cancer cells). The note with it: 72 h; library: FO5A; assay format: 2D, 384-well, CellTiter-Glo. A digest of the protocol:
as §1

The test system of the next assay is FMOC02_1 (patient-derived low-grade serous ovarian cancer cells). The note with it: 72 h; library: FO5A; assay format: 2D, 384-well, CellTiter-Glo. A digest of the protocol:
as §1

The test system of a further assay is FMOC14 (patient-derived high-grade serous ovarian cancer cells). The note with it: 72 h; library: FO5A; assay format: 2D, 384-well, CellTiter-Glo. A digest of the protocol: as §1
Another assay has as its system FMOC17 (patient-derived low-grade serous ovarian cancer cells). The note with it: 72 h; library: FO5A; assay format: 2D, 384-well, CellTiter-Glo. A digest of the protocol:
as §1

For another assay, the system named is FMOC11 (patient-derived high-grade serous ovarian cancer cells). The note with it: 72 h; library: FO5A; assay format: 2D, 384-well, CellTiter-Glo. A digest of the protocol:
as §1

The test system of the next assay is FMOC22 (patient-derived mucinous ovarian cancer cells). The note with it: 72 h; library: FO5A; assay format: 2D, 384-well, CellTiter-Glo. An outline of the steps: as §1
The next assay has as its system FMOC27 (patient-derived low-grade serous ovarian cancer cells). Conditions: 72 h; library: FO5A; assay format: 2D, 384-well, CellTiter-Glo. An outline of the steps: as §1
The test system of another assay is FMOC24 (patient-derived high-grade serous ovarian cancer cells). Conditions: 72 h; library: FO5A; assay format: 2D, 384-well, CellTiter-Glo. An outline of the steps: as §1
The next assay concerns FMOC25_1 (patient-derived low-grade serous ovarian cancer cells). Conditions: 72 h; library: FO4B; assay format: 2D, 384-well, CellTiter-Glo. An outline of the steps: as §1
A further assay has as its system FMOC25_2 (patient-derived low-grade serous ovarian cancer cells). Conditions: 72 h; library: FO5A; assay format: 2D, 384-well, CellTiter-Glo. A digest of the protocol: as §1

With `NCc1ccc(OCCCc2sc(-c3ccc4c(c3)/C(=N/Nc3nc5ccccc5s3)CCC4)nc2C(=O)O)cc1` [WEHI-539], the drug sensitivity score in the assay on FMOC04 is 0; with FMOC28, 3; in the assay on FMOC09 it was 0; in the assay with FMOC03, 1.9; in the assay with FMOC06, 3; in the assay with FMOC02_2 it was 6.4. The drug sensitivity score was 0.5 with FMOC02_3; 5.1 in the assay with FMOC02_1; 1.5 in the assay with FMOC14; 0.4 with FMOC17; 3.1 in the assay with FMOC11; 0 in the assay on FMOC22. The drug sensitivity score in the assay with FMOC27 was found to be 6.9; with FMOC24, 3.7; in the assay with FMOC25_1, 4.2; in the assay with FMOC25_2, 0.1.
